Tests used:
[1] = system: Salmonella typhimurium G46 missense histidine-auxotroph; test: Host mediated assay (in vivo mutagenicity), G46 indicator (Table 22); design: species or system Salmonella typhimurium in Cox white Swiss male mice; details: for IN VIVO mutants test/mutants control: s.c.
Method: Cox white Swiss male mice 25-30 grams were used in all in vivo tests.
A. Drug Administration: Appropriate solvents were used where applicable with a solvent control run within each test. The compounds to be tested were given either subcutaneously along the backbone of the mouse (0.1 ml.) or by oral gavage (0.5 ml.) B. Inoculation Technique: The histidine- cultures G46, C209, C3076, and D3056 used as the TA15 series have lost pathogenicity to mice because of absence or decrease in the lipopolysaccharide coat. The organisms were grown to stationary phase, then diluted with normal saline to give an inoculum near 1×10^8 organisms per milliliter. The abdominal area of the drug-treated mouse was swabbed with alcohol and two milliliters of bacterial culture were injected into the abdominal cavity of the mouse. The mice were returned to their cages for 3-4 hours.
C. Autopsy and Recovery: The mice were sacrificed individually by cervical dislocation prior to each autopsy. The abdominal areas were soaked with ethanol. The peritoneum was bared and 2.5 ml. of sterile normal saline was injected into the peritoneal cavity using a sterile (3-ml. plastic syringe with a 20-gauge needle. After insertion, the needle is turned bevel up and the saline was expelled into the cavity; while the needle remains through the peritoneum, keeping the point of the needle in sight pressed against the peritoneal wall, the abdomen of the mouse was massaged to mix contents. The saline wash was removed from the abdominal cavity back into the syringe. The needle was removed and the contents expelled into an appropriately marked tube and iced 4° C.
D. Dilution and Plating: One-ml. samples were plated at 10° dilution on all mice to determine revertants (histidine+).
A one-milliliter sample from the untreated dilutions from control animals is plated 10^-6, 10^-7, and 10^-8 dilutions with excess histidine to determine mutable population (histidine-).
The results are recorded as mutants test/mutants control.

[2] = system: Salmonella typhimurium G46 missense histidine-auxotroph; test: Qualitative in vitro prescreen for mutagenicity, G46 indicator (Table 22); details: 200 mcg disc
[3] = 300 mg/kg, MT/MC of 3 would indicate mutagenic potential

SMILES	IN VIVO mutants test/mutants control ([1]; 3 mg/kg)	IN VIVO mutants test/mutants control ([1]; 30 mg/kg)	IN VIVO mutants test/mutants control [1, 3]	toxicity to the animals ([1]; high levels)	IN VITRO QUALITATIVE ACTIVITY [2]
O=P1(N(CCCl)CCCl)NCCCO1 (stereo not drawn) [Cyclophosphamide]	1.16	1.30	TOXIC	toxic to the animals at high levels	N
Cn1cnc([N+](=O)[O-])c1Sc1ncnc2nc[nH]c12 [Azathioprine]	1.03	1.96	5.93	–	N

From patent publication US4153709A, “N-Heterocyclic ureas as immune regulants” (Eli Lilly and Company, priority 1977, dated 1979)
